For orientation: inhibition means the share of the control response that was lost under treatment.

By UniProt entry, the sequences of proteins in these tests, tags left out. Where a name states a change or a piece, a line headed by the entry shows the natural chain unless it says otherwise.
UniProt P05106: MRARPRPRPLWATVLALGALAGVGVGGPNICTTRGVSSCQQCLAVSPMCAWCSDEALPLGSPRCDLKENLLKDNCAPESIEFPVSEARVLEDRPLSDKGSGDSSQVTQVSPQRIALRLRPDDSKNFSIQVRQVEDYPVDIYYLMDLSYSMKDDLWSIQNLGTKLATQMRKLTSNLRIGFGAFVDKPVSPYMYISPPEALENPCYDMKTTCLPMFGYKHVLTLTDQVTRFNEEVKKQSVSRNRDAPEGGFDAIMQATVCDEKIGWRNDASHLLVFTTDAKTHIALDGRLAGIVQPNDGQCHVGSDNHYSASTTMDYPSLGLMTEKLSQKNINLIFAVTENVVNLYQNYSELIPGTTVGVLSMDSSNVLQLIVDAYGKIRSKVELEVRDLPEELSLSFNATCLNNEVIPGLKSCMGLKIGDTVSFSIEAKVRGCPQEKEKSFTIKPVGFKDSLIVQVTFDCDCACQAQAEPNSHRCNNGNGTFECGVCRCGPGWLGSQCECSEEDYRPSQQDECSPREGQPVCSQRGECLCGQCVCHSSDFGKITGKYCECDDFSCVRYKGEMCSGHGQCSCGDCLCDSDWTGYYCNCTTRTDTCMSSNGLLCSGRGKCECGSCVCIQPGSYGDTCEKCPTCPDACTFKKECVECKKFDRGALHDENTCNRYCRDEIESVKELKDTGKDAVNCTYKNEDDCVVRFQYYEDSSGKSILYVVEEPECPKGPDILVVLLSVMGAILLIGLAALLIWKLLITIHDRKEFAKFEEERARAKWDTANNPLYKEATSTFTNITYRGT
UniProt P06756: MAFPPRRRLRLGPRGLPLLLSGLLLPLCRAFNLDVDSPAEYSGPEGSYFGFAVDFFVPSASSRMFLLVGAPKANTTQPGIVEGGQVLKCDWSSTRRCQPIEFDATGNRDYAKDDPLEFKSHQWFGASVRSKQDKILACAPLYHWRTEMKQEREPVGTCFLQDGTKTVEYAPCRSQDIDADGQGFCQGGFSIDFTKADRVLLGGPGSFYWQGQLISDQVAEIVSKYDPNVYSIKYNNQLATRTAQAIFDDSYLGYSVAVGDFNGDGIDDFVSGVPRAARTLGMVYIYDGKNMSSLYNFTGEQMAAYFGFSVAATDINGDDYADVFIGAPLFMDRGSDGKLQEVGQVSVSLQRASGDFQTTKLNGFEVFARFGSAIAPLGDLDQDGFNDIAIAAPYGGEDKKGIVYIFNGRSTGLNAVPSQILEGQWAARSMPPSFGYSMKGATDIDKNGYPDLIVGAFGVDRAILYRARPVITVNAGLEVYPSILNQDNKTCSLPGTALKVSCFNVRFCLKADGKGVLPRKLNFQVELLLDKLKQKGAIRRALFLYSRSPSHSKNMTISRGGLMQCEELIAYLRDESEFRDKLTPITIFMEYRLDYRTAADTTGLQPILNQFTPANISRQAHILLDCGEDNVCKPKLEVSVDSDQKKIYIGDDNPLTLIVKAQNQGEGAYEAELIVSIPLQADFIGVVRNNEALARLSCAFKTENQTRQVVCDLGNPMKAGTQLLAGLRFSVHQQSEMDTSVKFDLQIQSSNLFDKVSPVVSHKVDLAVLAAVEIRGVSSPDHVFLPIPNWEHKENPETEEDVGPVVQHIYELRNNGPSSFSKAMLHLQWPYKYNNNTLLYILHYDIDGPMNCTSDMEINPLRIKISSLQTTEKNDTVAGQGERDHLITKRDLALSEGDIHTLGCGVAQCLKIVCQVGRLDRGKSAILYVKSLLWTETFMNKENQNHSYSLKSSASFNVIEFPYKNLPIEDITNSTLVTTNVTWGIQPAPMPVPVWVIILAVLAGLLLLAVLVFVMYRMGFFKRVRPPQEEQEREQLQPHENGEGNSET

These results are taken from ChEMBL document CHEMBL1142302, “Discovery of subnanomolar arginine-glycine-aspartate-based alphaVbeta3/alphaVbeta5 integrin binders embedding 4-aminoproline residues” (J Med Chem, 2008).

For assay [1], the target named is T1, Integrin alpha-V/beta-3 (Homo sapiens, UniProt P05106+P06756). The assay is described as follows: Displacement of [125I]echistatin from human integrin alpha-V-beta-3 receptor low affinity state by solid phase assay relative to control. Conditions: concentration not given here. The class given is protein-complex assay. On the set-up: concentration or dose not given beside the values. Summed up:
(§1)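 Competition for [125I]-echistatin specific binding to purified human αvβ3 or αvβ5 integrin protein. Inhibition was plotted against test compound concentration. Each point is the mean ± SEM of triplicate determinations.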

For assay [2], the target named is T1, Integrin alpha-V/beta-3. Kind of assay: Displacement of [125I]echistatin from human integrin alpha-V-beta-3 receptor high affinity state by solid phase assay relative to control. In kind it is protein-complex assay. Set-up: concentration or dose not given beside the values. The note with it: concentration not given here. Summed up: as §1
(In general: In a radioligand displacement assay an active substance lowers the binding of a labelled ligand.)

With `N=C1NCCC[C@@H](C(=O)O)NC(=O)CNC(=O)[C@@H](N)CC(=O)N[C@@H]2CN[C@H](C2)C(=O)N1`, the inhibition worked out at 82% at Integrin alpha-V/beta-3 [1] and 18% at Integrin alpha-V/beta-3 [2].
